# Measurements as given in PMC12586182 (Frontiers in Oncology, 2025).
# Chains of the proteins cited; added tags and fusions are not shown. Residues count along the entry.
# UniProt P06241, whole entry: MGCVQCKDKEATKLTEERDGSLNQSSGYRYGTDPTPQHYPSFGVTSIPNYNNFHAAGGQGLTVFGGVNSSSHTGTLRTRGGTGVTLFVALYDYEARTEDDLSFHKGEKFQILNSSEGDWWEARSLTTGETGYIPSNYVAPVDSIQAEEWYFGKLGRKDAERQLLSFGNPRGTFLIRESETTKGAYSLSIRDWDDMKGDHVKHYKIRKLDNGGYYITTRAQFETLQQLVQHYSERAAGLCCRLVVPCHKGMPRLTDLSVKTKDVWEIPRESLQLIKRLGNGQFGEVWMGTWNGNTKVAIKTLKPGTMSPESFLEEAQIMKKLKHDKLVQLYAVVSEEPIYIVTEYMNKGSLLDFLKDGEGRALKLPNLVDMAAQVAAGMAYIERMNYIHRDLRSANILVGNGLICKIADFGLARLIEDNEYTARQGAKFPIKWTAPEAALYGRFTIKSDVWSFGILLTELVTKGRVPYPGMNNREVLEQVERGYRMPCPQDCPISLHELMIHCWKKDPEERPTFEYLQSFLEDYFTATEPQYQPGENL
# UniProt P06241, 1-534 isoform P06241-2: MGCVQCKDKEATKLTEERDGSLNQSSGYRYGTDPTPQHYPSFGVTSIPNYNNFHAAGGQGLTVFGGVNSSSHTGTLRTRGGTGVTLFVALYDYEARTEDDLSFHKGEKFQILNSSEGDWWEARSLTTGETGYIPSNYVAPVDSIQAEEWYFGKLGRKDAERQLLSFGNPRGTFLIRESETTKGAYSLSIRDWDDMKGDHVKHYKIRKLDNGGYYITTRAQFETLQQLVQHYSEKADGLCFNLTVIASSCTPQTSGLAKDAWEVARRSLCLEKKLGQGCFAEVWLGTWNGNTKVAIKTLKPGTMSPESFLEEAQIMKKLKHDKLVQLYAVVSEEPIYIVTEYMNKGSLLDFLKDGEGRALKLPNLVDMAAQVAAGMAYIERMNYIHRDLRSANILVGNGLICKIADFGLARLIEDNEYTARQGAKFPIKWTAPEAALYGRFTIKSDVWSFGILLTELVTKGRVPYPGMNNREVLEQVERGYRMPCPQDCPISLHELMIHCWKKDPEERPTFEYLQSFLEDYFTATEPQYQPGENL
# Columns and labels:
# Test in all cases: Kinase panel profiling at 1 µmol/L (mobility shift assay, Carna)
# Assay type in all cases: biochemical
# Details in all cases: 1 µmol/L of BTK inhibitor
# FYN [isoform a] = target: T1, FYN [isoform a] (Homo sapiens, UniProt P06241)
# T1 construct: purchased Carna Biosciences
# FYN [isoform b] = target: T2, FYN [isoform b] (Homo sapiens, UniProt P06241)
# T2 construct: purchased Carna Biosciences
# SRC = target: T3, SRC (Homo sapiens, UniProt P12931)
# T3 construct: purchased Carna Biosciences
smiles,measurement,setting,value
O=C(c1ccc(Oc2ccccc2)cc1Cl)c1c[nH]c2ncnc(N[C@@H]3CC[C@@H](CO)OC3)c12 [nemtabrutinib],Percentage inhibition of kinase enzyme activity,FYN [isoform a],100.28%
same,Percentage inhibition of kinase enzyme activity,FYN [isoform b],99.62%
same,Percentage inhibition of kinase enzyme activity,SRC,99.34%
